Reference: PubChem BioAssay AID504842 (National Center for Advancing Translational Sciences (NCATS), 2011)
Several values for one entry are separate records, joined by “and”; a condition that tells them apart may be missing. Equal entries are not always repeated. The entries are a selection whose mix differs from that of the whole data set. Activity calls are given as the source filed them. Calls follow the shape of the dose curve; as a rule, active = well fitted inhibition curve with a large enough effect; inconclusive = small, poorly fitted or top-dose-only effect; inactive = flat fitted curve, though single readings scatter.

test system: Chaperonin Mm-Cpn (Methanococcus maripaludis); assay: Inhibitors of TCP-1 ring complex (TRiC) of Methanococcus maripaludis (MmCpn): qHTS; conditions: purified Mm-Cpn ATPase, ADP Transcreener TR-FRET; at 76.9 µM (top of the series); also: nearly all actives have a fitted effect of over 80% in size
From the text: The eukaryotic chaperonin TRiC (for TCP-1 ring complex) is an essential and conserved chaperone required for the folding and activation of 10-15% of the proteins encoded by the human genome. […] The TRiC complex consist of two stacked 7-9 membered rings, each containing a central cavity. Substrates are folded within the cavity in an ATP-dependent manner. TRiC is a complex of eight different, essential proteins. As each of the genes encoding the eight subunits is essential for cell viability and no protocol has been developed to over-express this enzyme to high levels. That is why several groups studying the TRiC chaperonin have turned to the archaeal homolog of TRiC, Methanococcus maripaludis (Mm-CPN), and have used this enzyme as a model system for the study of the type II chaperonin family. Small molecule inhibitors of the Mm-CPN enzyme would be extremely useful to study the mechanism of chaperonin activity. Importantly, TRiC and Mm-CPN both require ATP hydrolysis for function. Furthermore, the ATP binding sites are highly conserved among these type II chaperonins. This provides us with an easy, well tested and straightforward assay to identify inhibitors of chaperonin activity. The Mm-CPN assay was developed in 1536-well plate format using the HTRF Transcreener ADP assay kit (Cisbio, Bedford, MA). This assay applied the time resolved fluorescence resonance energy transfer (TR-FRET) principle. ATP in the presence of Mm-CPN is converted to ADP + Pi. An antibody labeled with Eu3+-Cryptate specific and bound to ADP labeled with […] (d2) competes with the unlabeled ADP generated by Mm-CPN. The resulting TR-FRET signal is inversely proportional to the concentration of ADP in the sample. In this assay a reduction in TR-FRET signal is observed with ATP turnover. NIH Chemical Genomics Center [NCGC] NIH Molecular Libraries Probe Centers Network [MLPCN] MLPCN Grant: DA030554-01A1 Assay Submitter (PI): Judith Frydman, Stanford University
Purified Mm-CPN was supplied by the laboratory of Dr. Judith Frydman. Protein samples were stored at -80C as single use aliquots. Protein was thawed in ambient temperature water bath and placed on ice once thawed. Buffer was prepared fresh day of screen. The buffer composition below was used to prepare the working solution of the Mm-CPN protein and ATP substrate. The buffer is comprised of 30 mM TRIS pH 7.4, 100mM KCl, 5mM MgCl2, and 1mM DTT. A final concentration of 25nM Mm-CPN and 10uM ATP per well were used in the screen. Instructions according to the manufacturer were followed for the ADP Transcreener kit. Used 1536 well Greiner white, medium binding (MB), solid bottom plates. Plates were read on the PerkinElmer EnVision plate reader using Excitation = 320 nm and Emission = […], 665 nm. Protocol- 1.Dispense 1.5ul per well of working [Mm-CPN] = 50nM (or 75 ng / well) 2.Spin plate at 1000 rpm for 30 seconds 3.23nl of compound transferred per well 4.Incubate at 37degC for 10 minutes 5.Dispense 1.5ul per well of working [ATP] = 20uM 6.Incubate at 37degC for 30 minutes 7.Dispense 3ul per well of Anti-ADP Cryptate / ADP-d2 mix (prepared as instructed by Cisbio) 8.Incubate at ambient for 30 minutes 9.Read using EnVision
% is scaled to controls: 0 for no effect and ±100 for the full control effect.

Compound	activity, negative = inhibition
CC(C)c1ccc(OP(=O)(Nc2ccccn2)Oc2ccccc2F)cc1 (centres undefined)	inactive: 0.231%
O=[N+]([O-])c1cc([N+](=O)[O-])c(-c2ccn[nH]2)s1	inactive: -5.99%
CCN(CC)C(=S)SC(NC=O)C(Cl)(Cl)Cl (centres undefined)	inactive: -2.87%
CC(C)NC(=O)NP(=O)(Oc1ccccc1)Oc1ccccc1	inactive: 0.152%
COc1cc(C(=O)NCC2(N3CCOCC3)CCCCC2)ccc1OCC(C)C	inactive: -0.216%
C[As](=O)(O)c1cccc(C(=O)O)c1	inactive: -23.1%
O=[As](O)(c1ccc(O)cc1)c1ccccc1O	inactive: 1.02%
Cc1ccc(OP(=O)(Nc2ccc([N+](=O)[O-])cn2)Oc2ccc(C)cc2)cc1	inactive: -1.68%
Cc1ccc2nc3c(c(C)c2c1)CC(C(Cl)Cl)S3 (centres undefined)	inactive: -5.74%
COc1ccc(N/C(=N/P(=O)(N2CCOCC2)N2CCOCC2)N2CCOCC2)cc1	inactive: 2.54%
Cc1c2c(nc3ccccc13)SC(C(Cl)Cl)C2 (centres undefined)	inactive: -1.49%
Cc1cc(=O)[nH]c(N[N+](=O)[O-])n1	inactive: 0.912%
O=C(OC1CN2CCC1CC2)C12CC3CC(CC(C3)C1)C2 (centres undefined)	inactive: -3.49%
COc1cc(I)ccc1[As](=O)(O)O	inactive: 3.59%
COc1ccc2nc(NP(=O)(c3ccccc3)c3ccccc3)sc2c1	inactive: -6.09%
Cc1c2non([O-])c-2c(C)[n+](=O)[n+]1[O-]	inactive: 2.18%
O=C(NC(Sc1ccncn1)C(Cl)(Cl)Cl)c1ccccc1 (centres undefined)	inactive: 0.909%
Oc1ccccc1CNc1ccccn1	inactive: 1.01%
CC(C)CC(=O)NC(Sc1ccc(Cl)cc1)C(Cl)(Cl)Cl (centres undefined)	inactive: 1.45%
Nc1cc(N)c2nonc2c1[N+](=O)[O-]	inactive: 2.47%
Cc1ccc(N/C(=N/P(=O)(N2CCOCC2)N2CCOCC2)N2CCOCC2)cc1	inactive: 0.44%
CN(C(=O)Cc1ccc(Cl)c(Cl)c1)[C@H]1CCCC[C@H]1N1CCCC1	inactive: -0.545%
NC(=O)c1cc([N+](=O)[O-])cc([N+](=O)[O-])c1N	inactive: -0.0061%

Compound	activity, negative = inhibition
Clc1ccc(Cl)c(NC2=NCC(CBr)S2)c1 (centres undefined)	inactive: -4.09%
CN1CCCC(OC(=O)C(c2ccccc2)c2ccccc2)C1 (centres undefined)	inactive: 1.75%
Cc1ccc(OP(=O)(Nc2nccs2)Oc2ccc(C)cc2)cc1	inactive: 2.31%
COc1ccccc1OP(=O)(Nc1ccc(C)cn1)Oc1ccccc1OC	inactive: 0.361%
O=[N+]([O-])c1cc([N+](=O)[O-])c(CCN2CCOCC2)c([N+](=O)[O-])c1	inactive: -2.91%
Nc1cccc2ccc([As](=O)(O)O)cc12	inactive: -5.47%
CCN(N=Nc1nonc1N)c1nonc1N	inactive: -0.565%
O=P(Nc1nc2ccc(Cl)cc2s1)(c1ccccc1)c1ccccc1	inactive: -2.58%
O=C(O)c1ccccc1[As](=O)(O)O	inactive: 1.04%
CC(=O)Nc1ccc([As](=O)(O)O)cc1	inactive: -11.7%
Cc1ccc(NP(=O)(Oc2ccccc2F)Oc2ccccc2F)nc1	inactive: -0.306%
CCOP(=O)(Nc1ccccc1)OCC	inactive: -0.384% and inactive: -2.16%
Cc1cc(SC(NC(=O)c2ccc(F)cc2)C(Cl)(Cl)Cl)ncn1 (centres undefined)	inactive: 0.21%
O=[N+]([O-])c1ncn(CCn2ncnc2[N+](=O)[O-])n1	inactive: 4.53%
CC(C)(C)C(=O)NC(Sc1ccncn1)C(Cl)(Cl)Cl (centres undefined)	inactive: 0.179%
O=C(O)CNc1ccc([As](=O)(O)O)cc1	inactive: 1.64%
O=[N+]([O-])c1cccc(NC2=NCC(CBr)S2)c1 (centres undefined)	inactive: 2.46%
O=C(Nc1cc([As](=O)(O)O)ccc1O)c1ccccc1	inactive: -0.157%
C[N+]1=C2C=CC=CC=C2SC12C([N+](=O)[O-])=CC([N+](=O)[O-])=C[C-]2[N+](=O)[O-] (centres undefined)	inactive: -1.43%
Nc1ccc([As](=O)(O)c2ccc(N)cc2)cc1	inactive: -3.9%
CC1CCN(C(=O)Oc2c(Cl)cc(Cl)c3cccnc23)CC1	inactive: -0.857%
CN(C)C(=O)OCCc1n(C)cc[n+]1C	inactive: -1.57%
CC(C)=N/N=C(\N)N[N+](=O)[O-]	inactive: -24.2%

Compound	activity, negative = inhibition
COc1ccc(C2=NCC(CBr)S2)cc1 (centres undefined)	inactive: -5.36%
CCc1nc2c(n1)c1c(non1O)c1c2no[n+]1[O-]	inactive: -2.21%
O=[N+]([O-])c1cc([N+](=O)[O-])c(CCNc2ccccc2)c([N+](=O)[O-])c1	inactive: -1.9%
Cc1ccc(NP(=O)(Oc2ccccc2)Oc2ccccc2)nc1	inactive: 1.11%
O=[N+]([O-])c1cccc2n[nH]nc12	inactive: -1.15%
CC(=O)N1C2C3N(C(C)=O)C1C1N(C(C)=O)C(C(N1C(C)=O)N3C(C)=O)N2C(C)=O	inactive: -2.86%
CC(C)C(=O)NC(Sc1ccccc1)C(Cl)(Cl)Cl (centres undefined)	inactive: -0.585%
O=P(Nc1nccs1)(c1ccccc1)c1ccccc1	inactive: -0.582%
c1nnnn1CCn1cnnn1	inactive: -1.23%
O=[As](O)(c1ccccc1)c1ccc(O)cc1	inactive: 1.52%
O=[N+]([O-])c1ccc(O)c(/C=N/Nc2ccc([N+](=O)[O-])cc2[N+](=O)[O-])c1	inactive: -0.859%
CC(=O)NC(SC(=S)N(C)C)C(Cl)(Cl)Cl (centres undefined)	inactive: -0.0282%
O=[N+]([O-])c1ncn(CCn2cnc([N+](=O)[O-])n2)n1	inactive: -2.77%
O=C(OC1CN2CCC1CC2)c1cccc(Cl)c1 (centres undefined)	inactive: 1.78%
Nc1ccc([As](=O)(O)c2ccc([N+](=O)[O-])cc2)cc1	inactive: 2.12%
C(Cc1nn[nH]n1)Cc1nn[nH]n1	inactive: -0.719%
O=P(Nc1ccccn1)(c1ccc(Br)cc1)c1ccc(Br)cc1	inactive: 1.76%
CN(C)C1(CNC(=O)c2ccc(Cl)c(S(N)(=O)=O)c2)CCCCC1	inactive: 0.275%
C[C@H]1OP(=O)(Oc2ccccc2)[C@H](O)[C@H](O)[C@H]1N=[N+]=[N-] (some centres undefined)	inactive: 1.13%
O=P(Nc1nc2ccccc2s1)(c1ccccc1)c1ccccc1	inactive: -1.15%
CCC(=O)N1C2C3N(C(=O)CC)C1C1N(C(=O)CC)C(C(N1C(=O)CC)N3C(=O)CC)N2C(=O)CC	inactive: -0.419%
O=C(OC1CN2CCC1CC2)c1ccccc1 (centres undefined)	inactive: -0.822%
CC(=O)NC(SC(=S)N(CC(C)C)CC(C)C)C(Cl)(Cl)Cl (centres undefined)	inactive: 0.233%

Compound	activity, negative = inhibition
Cc1ccc(OP(=O)(Nc2ccccn2)Oc2ccc(C)cc2)cc1	inactive: -2.04%
COC(=O)c1cc2c(s1)N=C(c1ccccc1)N(C)P2(=O)N1CCOCC1 (centres undefined)	inactive: -0.422%
CN(C)C(=O)Oc1noc2ccccc12	inactive: -3.64%
O=c1c2cc([N+](=O)[O-])ccc2[nH]c2c([N+](=O)[O-])cc([N+](=O)[O-])cc12	inactive: -5.9%
Cc1ccccc1OP(=O)(Nc1ccccn1)Oc1ccccc1C	inactive: -4.49%
CC(NC(=O)COC(=O)C(O)(c1ccccc1)c1ccccc1)c1ccccc1 (centres undefined)	inactive: -0.232%
Cc1ccc(NP(=O)(Oc2cccc(C)c2)Oc2cccc(C)c2)nc1	inactive: -0.601%
CCOC(=O)NC(Sc1ccccc1)C(Cl)(Cl)Cl (centres undefined)	inactive: 0.522%
c1ccc(-c2nn[nH]n2)c(-c2nn[nH]n2)c1	inactive: -2.3%
CCNC(=S)/N=C(\N)N[N+](=O)[O-]	inactive: 0.84%
O=C(NC1CCS(=O)(=O)C1)NP(=S)(Oc1ccccc1)Oc1ccccc1 (centres undefined)	inactive: 2.12%
C[C@@H]1C=CCP(=O)(Oc2ccccc2)O1 (some centres undefined)	inactive: 0.771%
C[C@H]1OP(=O)(Oc2ccccc2)C[C@@H]2O[C@@H]21 (some centres undefined)	inactive: -0.31%
Cc1ccccc1CN(C)C(=O)COC(=O)C(O)(c1ccccc1)c1ccccc1	inactive: 0.769%
CC(=O)c1ccc(N2CC2c2ccncc2)cc1 (centres undefined)	inactive: -1.41%
CC(=O)Nc1ccc(Oc2c([N+](=O)[O-])cc([N+](=O)[O-])cc2[N+](=O)[O-])cc1	inactive: 0.352%
CC(=O)Nc1ccc([As](=O)(O)O)c(O)c1	inactive: 4.48%
CCOc1ccc(C2=NCC(CBr)S2)cc1 (centres undefined)	inactive: -5.13%
O=P1(Nc2nc3ccc(Cl)cc3s2)COc2ccccc2O1 (centres undefined)	inactive: 0.511%
CC(C)(C)C(=O)NC(Sc1ccccc1)C(Cl)(Cl)Cl (centres undefined)	inactive: 0.314%
